71 compounds from PubChem BioAssay AID488896 (Broad Institute, 2010) can be followed below.

The chains behind the UniProt entries cited, without tags or fusion partners.
UniProt Q61009, whole entry: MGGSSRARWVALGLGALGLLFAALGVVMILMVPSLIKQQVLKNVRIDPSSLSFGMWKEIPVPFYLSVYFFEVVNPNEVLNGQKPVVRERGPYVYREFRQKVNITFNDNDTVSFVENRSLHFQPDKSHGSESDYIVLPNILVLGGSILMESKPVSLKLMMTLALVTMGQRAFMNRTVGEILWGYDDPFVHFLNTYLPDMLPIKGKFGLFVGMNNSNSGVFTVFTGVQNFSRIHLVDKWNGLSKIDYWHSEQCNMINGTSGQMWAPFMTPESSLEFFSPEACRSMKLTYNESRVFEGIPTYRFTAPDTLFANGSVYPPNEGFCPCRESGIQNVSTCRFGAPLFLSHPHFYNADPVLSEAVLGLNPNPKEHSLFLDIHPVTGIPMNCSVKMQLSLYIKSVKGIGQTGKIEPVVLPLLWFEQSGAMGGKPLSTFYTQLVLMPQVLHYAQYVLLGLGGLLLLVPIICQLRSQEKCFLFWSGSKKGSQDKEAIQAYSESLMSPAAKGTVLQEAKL

The list shows a part of the results, in another mix than the full data. Active and inactive are the calls of the source.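 How the source made its calls: active means mean replicate inhibition of at least 70% and a set share of replicates each scoring 70 or more; inconclusive means meets just one of the two criteria; inactive means fails both criteria.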

The assay concerns the target Scavenger receptor class B member 1 (Mus musculus) (UniProt Q61009). Put plainly: mouse SR-BI DiI-HDL uptake blockers – ldlA[mSR-BI] cells, fluorescence, single point, primary screen (AID 488896).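 Further: 0% = median of neutral control wells and 100% = median of positive control wells.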 The conditions noted are these: ldlA[mSR-BI] CHO cells, 3 h, at 12.5 µM, stronger effect = higher value.
As to `CCC(CO)(C(=O)OC1CN2CCC1CC2)c1ccccc1` (stereo unspecified), the inhibition (commonly the drop in the measured response relative to a control, in per cent) was inactive: -20.7%. Next, `COc1cccc(C(=O)N(c2cc(C)cc(C)c2)C2CCN(C(=O)OC(C)(C)C)CC2)c1`: inactive: 3.24%; `COc1cc(OC)cc(C(=O)NCC2(N3CCOCC3)CCCCC2)c1`: inactive: 6.24%; `CN1CCC(Nc2ccc(Cl)cc2)CC1`: inactive: -11.6%. Next, `CN1CCC(Nc2ccc(F)c(Cl)c2)CC1`: inactive: -27.9%; `CCOc1ncccc1C(=O)NCC1(N2CCOCC2)CCCCC1`: inactive: -0.98%; `CCCOc1ccc(C(=O)NCC2(N(C)C)CCCCC2)cc1`: inactive: 8.44%.

Regarding `O=C(O)C1(Nc2ccccc2)CCN(Cc2ccccc2)CC1`, the inhibition was inactive: -20.1%. Next, `CC(C)(C)OC(=O)N1CCC(Nc2ccccc2)CC1`: inactive: 1.28%; `CCN1CCC(Nc2cccc(F)c2)CC1`: inactive: 8.36%. For the compound `Cc1ccccc1NC1(C#N)CCN(Cc2ccccc2)CC1`, the inhibition is inactive: -19.1%.

For `CN(C)c1ccc(C(=O)NCC2(N3CCCCC3)CCCCC2)cc1`, the inhibition is inactive: -2.96%. The same measure for `Cn1c(=O)[nH]cc(N(CCCl)CCCl)c1=O`: inactive: -6.12%. Next, `O=C(NCC1(N2CCCCC2)CCCCC1)c1ccco1`: inactive: -36.9%; `CC(=O)N(c1ccccc1)C1CCNCC1`: inactive: -14.8%. The same measure for `Cc1ccc(NC2(C#N)CCN(Cc3ccccc3)CC2)cc1`: inactive: -3.93%.

Consider `Fc1ccccc1NC1CCN(Cc2ccccc2)CC1`, for which the inhibition was inactive: -3.95%. Next, `Cc1ccc(C(=O)NCC2(N3CCCCC3)CCCCC2)o1`: inactive: -19.5%. For `CCCN1CCC(Nc2cc(OC)cc(OC)c2)CC1`, the inhibition was inactive: -14.7%. `Cc1cc(N(CCCl)CCCl)ccc1C=O`: the inhibition was inactive: 28.3%. Next, `c1ccc(CN2CCC(Nc3ccccc3)CC2)cc1`: inactive: 23.8%; `CN(C)C1(CNC(=O)c2cccc(C#N)c2)CCCCC1`: inactive: -9.98%; `CC(C)(C)OC(=O)N1CCC(N(C(=O)c2ccccc2)c2ccc(Cl)cc2)CC1`: inactive: 2.77%.

Consider `N#Cc1ccc(C(=O)NCC2(N3CCCCC3)CCCCC2)cc1`, for which the inhibition was inactive: -11.9%.

For the compound `N/C(=N\O)c1c(N)no[n+]1[O-]`, the inhibition was inactive: -9.99%. The same measure for `CCOC(=O)N1CCC(Nc2ccc(C)cc2)CC1`: inactive: -10.4%; for `O=C(OC1CN2CCC1CC2)C1c2ccccc2C=Cc2ccccc21` (stereo unspecified): inactive: -18.3%.

Take `O=C(NCC1(N2CCOCC2)CCCCC1)c1cc(Br)ccc1Cl`: the inhibition is inactive: 6.52%. Next, `COc1cc(C(=O)NCC2(N3CCOCC3)CCCCC2)cc(OC)c1C`: inactive: 32.2%; `COc1ccc(C(=O)NCC2(N3CCOCC3)CCCCC2)cc1OC`: inactive: -16.9%; `CN1CCC(Nc2cccc(F)c2)CC1`: inactive: -14.2%. For `O=C(NCC1(N2CCCCC2)CCCCC1)c1cncc(Br)c1`, the inhibition is inactive: 15.9%. For the compound `CCCOc1ccc(C(=O)NCC2(N(C)C)CCCCC2)cc1OC`, the inhibition was inactive: 7.26%.

Regarding `CN(C)c1cccc(C(=O)NCC2(N3CCCCC3)CCCCC2)c1`, the inhibition was inactive: -24.1%.

As for `COc1ccc(CN(CCCl)CCCl)cc1Cl`, the inhibition was inactive: -10.1%. Regarding `CC(C)c1ccc(NC2CCN(C(=O)OC(C)(C)C)CC2)cc1`, the inhibition was inactive: 4.39%. The same measure for `O=C(NCC1(N2CCOCC2)CCCCC1)c1cc(F)c(F)cc1Cl`: inactive: 17.2%; for `COc1cc(OC)c(C(=O)NCC2(N(C)C)CCCCC2)cc1OC`: inactive: -20.8%; for `COc1ccc(NC2CCN(C(=O)OC(C)(C)C)CC2)cc1`: inactive: 20.9%. Turning to `CC(C)c1ccc(C(=O)NCC2(N3CCOCC3)CCCCC2)cc1`, the inhibition was inactive: 4.72%. For `CN1CCN(CCOC(=O)C(O)(c2ccccc2)c2ccccc2)CC1`, the inhibition was inactive: -19.8%. The same measure for `O=C(NCC1(N2CCOCC2)CCCCC1)c1cc(=O)[nH]c2ccccc12`: inactive: 2.58%; for `COc1cc(C(=O)NCC2(N3CCCCC3)CCCCC2)ccc1OC(F)F`: inactive: -1.86%; for `O=C(NCC1(N2CCCCC2)CCCCC1)c1ccc(OC(F)F)cc1`: inactive: -2.04%.

For `CSc1ccc(C(=O)NCC2(N3CCOCC3)CCCCC2)cc1`, the inhibition was inactive: 5.18%. The same measure for `O=C(NCC1(N2CCCCC2)CCCCC1)c1cccc([N+](=O)[O-])c1`: inactive: -13.3%; for `N#CC1(Nc2ccccc2)CCN(CCc2ccccc2)CC1`: inactive: -16.7%; for `CCN1CCC(Nc2ccc(Cl)cc2)CC1`: inactive: -7.54%.

Regarding `CCOC(=O)N1CCC(Nc2cccc(C)c2)CC1`, the inhibition is inactive: 42.5%. With `COc1cc(C(=O)NCC2(N(C)C)CCCCC2)ccc1OC(F)F`, the inhibition was inactive: 4.36%.

As for `CCOc1ccc(C)cc1CN(CCCl)CCCl`, the inhibition was inactive: 28.1%.

Turning to `O=C1CCN(Cc2ccccc2)CC1`, the inhibition is inactive: -15.3%. The same measure for `CCOC(=O)N1CCC(Nc2ccc(F)cc2)CC1`: inactive: -21.9%. As for `COc1ccc(NC2CCN(CCc3ccccc3)CC2)c(OC)c1`, the inhibition is inactive: -30.1%. Next, `CCCCOc1ccc(C(=O)NCC2(N3CCOCC3)CCCCC2)cc1`: inactive: 15.7%; `O=P1(N(CCCl)CCCl)SCCCS1`: inactive: -0.261%. The same measure for `O=C(NCC1(N2CCCCC2)CCCCC1)c1ccc(F)cc1`: inactive: -26.5%. Next, `O=C(NCC1(N2CCOCC2)CCCCC1)c1cc2ccccc2o1`: inactive: 4.25%. For `Cc1cc(C)cc(N(C(=O)c2ccccc2)C2CCN(C(=O)OC(C)(C)C)CC2)c1`, the inhibition is inactive: -15.4%. Turning to `O=C(NCC1(N2CCCCC2)CCCCC1)c1ccc(Cl)nc1`, the inhibition was inactive: -37.6%. The same measure for `CCOC(=O)N1CCC(Nc2ccc(OC)cc2)CC1`: inactive: -21.6%; for `COc1ccc(Cl)cc1C(=O)NCC1(N2CCOCC2)CCCCC1`: inactive: -4.26%. `N#CC1(Nc2ccccc2)CCN(Cc2ccccc2)CC1`: the inhibition was inactive: -17.3%. As for `O=C(NCC1(N2CCCCC2)CCCCC1)c1ccc(Cl)s1`, the inhibition was inactive: -2.36%. In the case of `O=C(OC1CN2CCC1CC2)C1c2ccccc2Oc2ccccc21` (stereo unspecified), the inhibition is inactive: 10.7%. Next, `O=C(NCC1(N2CCCCC2)CCCCC1)c1cccs1`: inactive: -6.53%. Next, `O=C(NCC1(N2CCCCC2)CCCCC1)c1ccc(=O)[nH]c1`: inactive: -6.22%; `COc1ccc(C(=O)NCC2(N3CCCCC3)CCCCC2)c(OC)c1OC`: inactive: 0.242%. Next, `COc1ccc(C(=O)NCC2(N3CCCCC3)CCCCC2)cc1`: inactive: -7.64%.

Regarding `Cc1cccc(NC2(C#N)CCN(Cc3ccccc3)CC2)c1`, the inhibition was inactive: -12.1%. Consider `CSc1ccccc1C(=O)NCC1(N2CCCCC2)CCCCC1`, for which the inhibition was inactive: -19.6%.
